Data published in PubChem BioAssay AID2391 (Southern Research Specialized Biocontainment Screening …, 2010).
The whole screen tested about 310,000 compounds, of which about 410 (0.13%) were called active. Only results without a clear call are listed here; the source files them as inconclusive. The rule behind the calls is not given here.

Test: inhibition of RSV-induced cytopathic effect – HEp-2 cells, primary 10 µM value included (AID 2391)
Details: at 10 µM, active compounds read high

Structure (SMILES)	CPE inhibition
Cc1ccc2nc3c(c(C)c2c1)CC(C(Cl)Cl)S3 (stereo not drawn)	inconclusive: 30.4%
Cc1c2c(nc3ccccc13)SC(C(Cl)Cl)C2 (stereo not drawn)	inconclusive: 27%
CCC1=CC2Cc3nc4ccc(Cl)cc4c(N)c3C(C1)C2 (stereo not drawn)	inconclusive: 33.2%
